Bioassay records deposited in PubChem BioAssay by National Center for Advancing Translational Sciences (NCATS).
Only some compounds are listed: those with a hit (about 16% of all), similar ones and a draw of the others.
TDP1 block = TDP1 (human) enzyme inhibition; recombinant TDP1, AlphaScreen DNA substrate cleavage; actives 0.28% (n = 350,000); Potency, µM (top dose mostly 130 µM), actives largely listed as inhibitors; AID 485290; note: nearly all actives have a fitted effect of over 40% in size
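Compounds were preincubated with Tdp1 (1 nM final) for 15 min at room temperature before substrate (15 nM final) started a 5 min reaction; beads (10 ug/ml final) were then added for 10 min before AlphaScreen detection.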
miR-21 FLuc = miR-21 reporter, rising signal | HeLa miR-21 FLuc reporter, luciferase, 48 h | Potency, µM (top dose mostly 38.3 µM) | 340,000 tested, under 10 active | AID 2288; active = well fitted rising curve with a large enough effect; inconclusive = small, poorly fitted or top-dose-only effect; inactive = no such curve, though single readings can be large or run the other way;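 note: miR-21 action dims this reporter so a rising signal means less miR-21 action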
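HeLa miR-21-FLuc reporter line, endogenous miR-21; 2000 cells/well in DMEM/10% FBS; compound titration up to ~40uM final, 48 h, 37 degree Celsius; luciferase detection reagent, 15 min lysis, CCD luminescence.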
DT40 TDP1 no CPT = qHTS for Inhibitors of human tyrosyl-DNA phosphodiesterase 1 (TDP1): qHTS in cells in absence of CPT; DT40 Tdp1-/- hTDP1 cells, no CPT, ATP luminescence, 48 h; Potency, µM (series often up to 46.2 µM), usual class: inhibitors; actives 15% (n = 420,000); AID 686978, 2013; note: nearly all actives have a fitted effect of over 55% in size
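Growth kinetics read by CellTiter-Glo luminescence after ≥48 hr at 37 °C. Cells: DT40 Tdp1-/- stably carrying human TDP1, 400 per well, compound exposure in the absence of CPT (DMSO vehicle).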
uPA generation = inhibitors of cell surface uPA generation; Potency, µM (highest dose often 38.3 µM), hits mostly inhibitors; AID 540303; cell surface uPA generation assay, qHTS; actives 0.31% (n = 330,000); active = well fitted inhibition curve with a large enough effect; inconclusive = small, poorly fitted or top-dose-only effect; inactive = no such curve, though single readings can be large or run the other way; tested in mouse RAW 264.7 cells; note: nearly all actives have a fitted effect of over 55% in size
TDP1 cell CPT = DT40-hTDP1 cell growth loss with CPT. chicken DT40 Tdp1-/-;hTDP1 cells + 20 nM CPT, ATP luminescence, 48 h. Potency, µM (doses to about 46.2 µM), most hits filed as inhibitors. actives 12% (n = 420,000). AID 686979; note: nearly all actives have a fitted effect of over 55% in size
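Chicken DT40 Tdp1-/- cells stably complemented with human TDP1 were seeded at 400 cells/well in medium containing 20 nM camptothecin, exposed to pin-transferred compounds, and grown at 37 °C for at least 48 hr. Viability was read as ATP luminescence.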
Each line names hits and unclear results; the compound was inactive in the other large screens. Unless noted, calls come from the whole dose curve; as a rule, active = well fitted curve in the direction sought with a large enough effect; inconclusive = small, poorly fitted or top-dose-only effect, or another doubt; inactive = no such curve, though single readings can be large; an effect the other way counts as inactive or inconclusive.

CCOC(=O)c1c(-c2ccccc2)oc2ccc(OCC(O)CN(C)C)cc12 (configuration not stated)	miR-21 FLuc inconclusive, DT40 TDP1 no CPT 23.1µM, TDP1 cell CPT inconclusive (no result: TDP1 block)
CCOC(=O)c1c(-c2ccccc2)oc2ccc(NS(=O)(=O)c3ccc(C)cc3)cc12	miR-21 FLuc inconclusive, DT40 TDP1 no CPT 2.91µM, TDP1 cell CPT 2.91µM (no result: uPA generation)
c1ccc(-n2cnnc2SCc2cn3cccnc3n2)cc1	none
O=C(NCc1ccccc1Cl)c1cc([N+](=O)[O-])ccc1Cl	none
O=S(=O)(NC(=S)NC1CCCCC1)c1ccc(Cl)cc1	none
CCOC(=O)c1cnc2ccc(OCC)cc2c1N1CCN(c2ccccc2OC)CC1	DT40 TDP1 no CPT 11.6µM, TDP1 cell CPT inconclusive
CCOC(=O)c1cnc2ccc(OCC)cc2c1N(C)Cc1ccccc1	DT40 TDP1 no CPT 23.1µM, TDP1 cell CPT inconclusive
CCOc1ccc2ncc(C(=O)c3ccc(OC)cc3)c(N3CCN(CC)CC3)c2c1	DT40 TDP1 no CPT inconclusive, TDP1 cell CPT inconclusive
CCOC(=O)c1cnc2c(OC)cccc2c1N1CCN(c2ccccc2F)CC1	miR-21 FLuc inconclusive, DT40 TDP1 no CPT 18.4µM, TDP1 cell CPT 18.4µM (no result: uPA generation)
Cc1nn(-c2ccc(F)cc2F)c2c1-c1nc(N3CCCC3)ncc1CC2	DT40 TDP1 no CPT inconclusive, TDP1 cell CPT inconclusive
CC(C)(C)OC(=O)[C@H](Cc1ccccc1)NC(=O)c1nc[nH]c1C(=O)N[C@@H](Cc1ccccc1)C(=O)OC(C)(C)C	miR-21 FLuc inconclusive, DT40 TDP1 no CPT 18.4µM, uPA generation inconclusive, TDP1 cell CPT 14.6µM
CC(C)(C)OC(=O)[C@H](Cc1ccccc1)NC(=O)c1[nH]cnc1C(=O)N[C@@H](Cc1ccccc1)C(=O)OCc1ccccc1	DT40 TDP1 no CPT 23.1µM, TDP1 cell CPT 16.4µM (no result: TDP1 block)
CC(C)(C)OC[C@H](NC(=O)c1[nH]cnc1C(=O)Nc1ccccc1F)C(=O)OC(C)(C)C	DT40 TDP1 no CPT 20.6µM, TDP1 cell CPT 20.6µM (no result: TDP1 block, miR-21 FLuc, uPA generation)
CC(C)(C)OC(=O)[C@H](CCCCN)NC(=O)c1[nH]cnc1C(=O)N[C@@H](Cc1ccccc1)C(=O)OCc1ccccc1	TDP1 cell CPT inconclusive (no result: miR-21 FLuc)
CC(C)(C)OC(=O)N1CCN(C(=O)c2[nH]cnc2C(=O)Nc2ccccc2F)CC1	DT40 TDP1 no CPT inconclusive (no result: TDP1 block, miR-21 FLuc, uPA generation)
CC(C)(C)OC(=O)NCc1ccc(CNC(=O)c2ncn(Cc3ccccc3)c2C(=O)NCc2ccc(CNC(=O)OC(C)(C)C)cc2)cc1	none (no result: miR-21 FLuc)
CC(C)(C)OC(=O)NCCCCCNC(=O)c1ncn2c1c(=O)[nH]c1ccccc12	DT40 TDP1 no CPT 20.6µM, TDP1 cell CPT inconclusive (no result: TDP1 block, miR-21 FLuc, uPA generation)
Cc1cc(C(=O)N2CCc3ccccc3C2)no1	none
C[C@H](NC(=O)c1nc[nH]c1C(=O)NCc1ccc(CNC(=O)OC(C)(C)C)cc1)C(=O)OCc1ccccc1	DT40 TDP1 no CPT 16.4µM, TDP1 cell CPT 20.6µM (no result: miR-21 FLuc)
O=C(N[C@@H](Cc1ccccc1)C(=O)OCc1ccccc1)c1nc[nH]c1C(=O)N1CCN(c2ccccc2)CC1	DT40 TDP1 no CPT inconclusive, TDP1 cell CPT inconclusive
CC(C)(C)OC(=O)C(Cc1ccc(OC(C)(C)C)cc1)NC(=O)CNC(=O)CNC(=O)OCc1ccccc1 (configuration not stated)	DT40 TDP1 no CPT inconclusive, TDP1 cell CPT inconclusive
CC(C)(C)OC(=O)[C@H](Cc1ccccc1)NC(=O)c1ncn2c1c(=O)[nH]c1ccc(Br)cc12	DT40 TDP1 no CPT 3.26µM, TDP1 cell CPT 4.61µM (no result: TDP1 block, miR-21 FLuc, uPA generation)
O=C(N[C@@H](Cc1ccccc1)C(=O)OCc1ccccc1)c1nc[nH]c1C(=O)NCc1ccccc1	DT40 TDP1 no CPT inconclusive, TDP1 cell CPT 18.4µM
CC(NC(=O)OCc1ccccc1)C(=O)NCC(=O)NC(Cc1ccc(OC(C)(C)C)cc1)C(=O)OC(C)(C)C (configuration not stated)	DT40 TDP1 no CPT 11.6µM, TDP1 cell CPT 20.6µM
Oc1ccc(N2CCN(Cc3cc4c(cc3Br)OCCO4)CC2)cc1	DT40 TDP1 no CPT 23.1µM, TDP1 cell CPT inconclusive (no result: TDP1 block)
O=S(=O)(c1ccc(F)cc1)N1CCN(Cc2cc3c(cc2Br)OCCO3)CC1	DT40 TDP1 no CPT inconclusive, TDP1 cell CPT inconclusive (no result: miR-21 FLuc)
CCOC(=O)c1c(NC(=O)c2cc(-c3ccc(O)cc3)on2)sc(C(C)=O)c1C	DT40 TDP1 no CPT 5.8µM, TDP1 cell CPT 4.61µM
CCOC(=O)c1c(NC(=O)CSc2nnc(-c3cccc(C)c3)n2CC)sc(C(C)=O)c1C	DT40 TDP1 no CPT 23.1µM, TDP1 cell CPT 23.1µM
CCOC(=O)c1c(NC(=O)CSc2cccc[n+]2[O-])sc(C(=O)Nc2ccccc2)c1C	DT40 TDP1 no CPT 18.4µM, TDP1 cell CPT inconclusive
CCOC(=O)c1c(-c2ccc(C)cc2)csc1NC(=O)c1cc(-c2ccc(Cl)cc2)on1	none (no result: uPA generation)
CCOC(=O)c1c(NC(=O)CSc2nnc(Cc3ccccc3)o2)sc(C(C)=O)c1C	DT40 TDP1 no CPT 20.6µM, TDP1 cell CPT 20.6µM (no result: uPA generation)
Fc1cnc(N2CCc3ccccc32)nc1N1CCc2ccccc21	DT40 TDP1 no CPT inconclusive, TDP1 cell CPT inconclusive
Cc1cc(CN(C)C(=O)CC2C(=O)NCCN2Cc2c(F)cccc2Cl)n[nH]1 (configuration not stated)	none
COc1cc([C@H]2c3c(cc(OC)c(O)c3OC)C[C@@H](CO)[C@@H]2CO[C@@H]2O[C@H](CO)[C@@H](O)[C@H](O)[C@H]2O)cc(OC)c1O	none (no result: TDP1 block, miR-21 FLuc)
O=C(Nc1nccs1)C(c1ccccc1)N1CCCCC1 (configuration not stated)	none
CCOC(=O)c1c(NC(=O)CSc2nc3nc(C)cc(C)n3n2)sc(CC)c1C	DT40 TDP1 no CPT inconclusive, TDP1 cell CPT 11.6µM
CCOC(=O)c1sc(NC(=O)c2cc(-c3ccccc3)nc3ccccc23)c(C#N)c1C	DT40 TDP1 no CPT 5.8µM, TDP1 cell CPT 7.31µM
CCOC(=O)c1c(NC(=O)CSc2nnc(-c3ccccc3)o2)sc(C(C)=O)c1C	DT40 TDP1 no CPT 23.1µM, TDP1 cell CPT 16.4µM
CCOC(=O)c1c(NC(=O)CSc2nnc(-c3ccc(C)cc3)o2)sc(C(C)=O)c1C	TDP1 cell CPT inconclusive
CCOC(=O)c1sc(NC(=O)CSc2n[nH]c(-c3ccccc3)n2)c(C#N)c1C	DT40 TDP1 no CPT inconclusive, TDP1 cell CPT 11.6µM
COc1cc(C(F)(F)F)c(C(=O)N(C)Cc2ccc(Cl)c(Cl)c2)cn1	DT40 TDP1 no CPT inconclusive, TDP1 cell CPT inconclusive
CCOC(=O)c1c(NC(=O)CSc2nc(C)cc(C)c2C#N)sc(C(C)=O)c1C	DT40 TDP1 no CPT 7.31µM, TDP1 cell CPT 9.2µM
CCOC(=O)c1sc(NC(=O)CSc2nnc(Cc3ccccc3)o2)c(C#N)c1C	DT40 TDP1 no CPT 16.4µM, TDP1 cell CPT 11.6µM
CCOC(=O)c1sc(NC(=O)CSc2ccccn2)c(C#N)c1C	none
CCOC(=O)c1sc(NC(=O)CSc2nc(C)cc(C)n2)c(C#N)c1C	TDP1 cell CPT inconclusive
